T1: Rhesus monkey IL-1β (Rhesus monkey, UniProt P48090 117-269)
T1 sequence (looked up): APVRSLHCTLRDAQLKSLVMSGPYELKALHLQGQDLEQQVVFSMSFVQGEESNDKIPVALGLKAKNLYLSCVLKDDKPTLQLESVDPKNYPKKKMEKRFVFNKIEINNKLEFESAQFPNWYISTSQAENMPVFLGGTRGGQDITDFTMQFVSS

Amino acid sequences for entries named in this document (tags omitted). A change or cut given only in a name is not applied to a line headed by its entry.
UniProt P01584: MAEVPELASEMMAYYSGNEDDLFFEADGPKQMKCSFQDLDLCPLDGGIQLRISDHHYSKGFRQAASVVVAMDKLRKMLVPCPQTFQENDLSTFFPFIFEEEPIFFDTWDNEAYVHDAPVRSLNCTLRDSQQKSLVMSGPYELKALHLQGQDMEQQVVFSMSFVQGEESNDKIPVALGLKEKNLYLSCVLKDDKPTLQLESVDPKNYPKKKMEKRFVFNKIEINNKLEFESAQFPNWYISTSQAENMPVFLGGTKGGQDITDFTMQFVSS

T2: human IL-1α (human, UniProt P01583 113-271)
T2 construct: Purified recombinant protein
T2 sequence (looked up): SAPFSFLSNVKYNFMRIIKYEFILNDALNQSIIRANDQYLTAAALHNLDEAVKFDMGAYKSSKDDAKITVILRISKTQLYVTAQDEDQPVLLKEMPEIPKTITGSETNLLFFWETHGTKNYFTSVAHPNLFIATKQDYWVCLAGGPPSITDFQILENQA

B1: TAVO7378 (humanized IgG1 antibody, 304VH1 with 304VL3) (antibody)
heavy: EVQLVESGGGLVQPGGSLRLSCAASGFTFSSFGMHWVRQAPGKGLEWVAYISIGSYTVHYADSVKGRFTISRDNAKNSLYLQMNSLRDEDTAVYYCVRDDYDVTDYTMDYWGQGTTVTVSSASTKGPSVFPLAPSSKSTSGGTAALGCLVKDYFPEPVTVSWNSGALTSGVHTFPAVLQSSGLYSLSSVVTVPSSSLGTQTYICNVNHKPSNTKVDKKV[human IgG1 Fc with changes not listed]
light: DIVMTQTPLSLPVTPGEPASISCKSSQSLLNSRTRKNYLAWYLQKPGQSPQLLIYWASTRESGVPDRFSGSGSGTDFTLKISRVEAEDVGVYYCKQTYNFPTFGQGTKLEIKRTVAAPSVFIFPPSDEQLKSGTASVVCLLNNFYPREAKVQWKVDNALQSGNSQESVTEQDSKDSTYSLSSTLTLSKADYEKHKVYACEVTHQGLSSPVTKSFNRGEC
notes: Humanized IgG1
B2: TAVO7379 (humanized IgG1 antibody, 304VH1 with 304VL4) (antibody)
heavy: EVQLVESGGGLVQPGGSLRLSCAASGFTFSSFGMHWVRQAPGKGLEWVAYISIGSYTVHYADSVKGRFTISRDNAKNSLYLQMNSLRDEDTAVYYCVRDDYDVTDYTMDYWGQGTTVTVSSASTKGPSVFPLAPSSKSTSGGTAALGCLVKDYFPEPVTVSWNSGALTSGVHTFPAVLQSSGLYSLSSVVTVPSSSLGTQTYICNVNHKPSNTKVDKKV[human IgG1 Fc with changes not listed]
light: DIVMTQTPLSLPVTPGEPVSMSCKSSQSLLNSRTRKNYLAWYLQKPGQSPQLLIYWASTRESGVPDRFSGSGSGTDFTLKISRVEAEDVGVYYCKQTYNFPTFGQGTKLEIKRTVAAPSVFIFPPSDEQLKSGTASVVCLLNNFYPREAKVQWKVDNALQSGNSQESVTEQDSKDSTYSLSSTLTLSKADYEKHKVYACEVTHQGLSSPVTKSFNRGEC
notes: Humanized IgG1

What was measured:
[1] = biological target: recombinant human IL-1β (R&D systems) (human, UniProt P01584, in part); test: cell-based or functional assay
Rhesus monkey IL-1β = biological target: T1, Rhesus monkey IL-1β; test: cell-based or functional assay
human IL-1α = biological target: T2, human IL-1α; test: ELISA with purified recombinant protein
Protocol: To evaluate the binding specificity, cytokines homologous to IL-1β such as IL-1α were evaluated for binding to humanized antibodies in ELISA-based binding assay with purified recombinant protein.

| Binder | IC50 of blocking human IL-1β-mediated IL-6 release from MRC-5 cells [1] | IC50 of neutralizing human IL-1β driven reporter gene expression, HEK-Blue IL-1β reporter assay [1] | IC50 of neutralizing rhesus monkey IL-1β driven reporter gene expression, HEK-Blue IL-1β reporter assay (Rhesus monkey IL-1β) | binding result (human IL-1α) |
| --- | --- | --- | --- | --- |
| B1 | ~0.05 µg/mL | ~0.09 µg/mL | ~0.018 µg/mL | no binding (tested: 1 ug/mL) |
| B2 | ~0.05 µg/mL | ~0.09 µg/mL | ~0.018 µg/mL | no binding (tested: 1 ug/mL) |

Reference: patent US20230068783A1 (TAVOTEK BIOTHERAPEUTICS HONG KONG, published 2023)
